The results in this text go back to patent publication US8309097 (VERENIGING VOOR CHRISTELIJK WETENSCHAPPELIJK ONDERWIJS, dated 2012).

The target of this assay is T1, ICAM-3 coated on fluorescent beads (UniProt P32942 30-485).
T1 sequence: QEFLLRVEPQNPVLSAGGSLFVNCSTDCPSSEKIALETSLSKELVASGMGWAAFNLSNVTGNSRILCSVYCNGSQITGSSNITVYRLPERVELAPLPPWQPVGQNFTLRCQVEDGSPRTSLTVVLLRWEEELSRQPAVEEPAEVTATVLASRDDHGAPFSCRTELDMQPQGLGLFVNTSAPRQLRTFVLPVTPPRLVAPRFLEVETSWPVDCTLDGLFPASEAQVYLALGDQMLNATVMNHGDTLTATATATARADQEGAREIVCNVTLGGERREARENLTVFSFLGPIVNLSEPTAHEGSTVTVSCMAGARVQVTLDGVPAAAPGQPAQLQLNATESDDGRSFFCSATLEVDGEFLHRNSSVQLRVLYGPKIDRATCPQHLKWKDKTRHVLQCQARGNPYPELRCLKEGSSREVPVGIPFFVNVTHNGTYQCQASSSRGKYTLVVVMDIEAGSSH
Kind of assay: fluorescent bead adhesion assay, K562 transfectants.

B1: DC-SIGN V351G mutant expressed by K562 cells (receptor)
chain: MSDSKEPRLQQLGLLEEEQLRGLGFRQTRGYKSLAGCLGHGPLVLQLLSFTLLAGLLVQVSKVPSSISQEQSRQDAIYQNLTQLKAAVGELSEKSKLQEIYQELTQLKAAVGELPEKSKLQEIYQELTRLKAAVGELPEKSKLQEIYQELTWLKAAVGELPEKSKMQEIYQELTRLKAAVGELPEKSKQQEIYQELTRLKAAVGELPEKSKQQEIYQELTRLKAAVGELPEKSKQQEIYQELTQLKAAVERLCHPCPWEWTFFQGNCYFMSNSQRNWHDSITACKEVGAQLVVIKSAEEQNFLQLQSSRSNRFTWMGLSDLNQEGTWQWVDGSPLLPSFKQYWNRGEPNNGGEEDCAEFSGNGWNDDKCNLAKFWICKKSAASCSRDEEQFLSPAPATPNPPPA
Take B1: the binding result was “no binding”.
